Read-outs that look alike come from different tables or passages of the source.
Key:
[1] = 5/2/5 schedule
Panc-1 xenografts = details: Panc-1 xenograft, 5/2/5 schedule

7-butyl-10-amino-camptothecin-(20S) β-alanine-lysine [BACPTDP]
22 Day survival ([1]; 2.5 mg/kg i.p.): 3/3 | Maximum body weight loss (%) ([1]; 2.5 mg/kg i.p.): 0% | 22 Day survival ([1]; 5 mg/kg i.p.): 3/3 | Maximum body weight loss (%) ([1]; 5 mg/kg i.p.): 2% | 22 Day survival ([1]; 10 mg/kg i.p.): 2/3 | Maximum body weight loss (%) ([1]; 10 mg/kg i.p.): 24% | 22 Day survival ([1]; 20 mg/kg i.p.): 0/3 | toxicity assessment ([1]; doses of 2.5 and 5 mg/kg i.p.): well tolerated | toxicity assessment ([1]; doses of 10 and 20 mg/kg i.p.): toxic | Maximum body weight loss (%) (Panc-1 xenografts; 4.5 mg/kg i.p.): 6% | Maximum body weight loss (%) (Panc-1 xenografts; 6.7 mg/kg i.p.): 11% | Maximum body weight loss (%) (Panc-1 xenografts; 8.0 mg/kg i.p.): 21%

Source: article PMC2982901 (Cancer chemotherapy and pharmacology, 2010)
